Laboratory results as given in patent publication US10894788B2, “Inhibitors of cyclin-dependent kinases” (Kinnate Biopharma Inc., priority 2018, dated 2021).

Amino acid sequences for entries named in this document (tags omitted).
UniProt Q9NYV4, whole entry: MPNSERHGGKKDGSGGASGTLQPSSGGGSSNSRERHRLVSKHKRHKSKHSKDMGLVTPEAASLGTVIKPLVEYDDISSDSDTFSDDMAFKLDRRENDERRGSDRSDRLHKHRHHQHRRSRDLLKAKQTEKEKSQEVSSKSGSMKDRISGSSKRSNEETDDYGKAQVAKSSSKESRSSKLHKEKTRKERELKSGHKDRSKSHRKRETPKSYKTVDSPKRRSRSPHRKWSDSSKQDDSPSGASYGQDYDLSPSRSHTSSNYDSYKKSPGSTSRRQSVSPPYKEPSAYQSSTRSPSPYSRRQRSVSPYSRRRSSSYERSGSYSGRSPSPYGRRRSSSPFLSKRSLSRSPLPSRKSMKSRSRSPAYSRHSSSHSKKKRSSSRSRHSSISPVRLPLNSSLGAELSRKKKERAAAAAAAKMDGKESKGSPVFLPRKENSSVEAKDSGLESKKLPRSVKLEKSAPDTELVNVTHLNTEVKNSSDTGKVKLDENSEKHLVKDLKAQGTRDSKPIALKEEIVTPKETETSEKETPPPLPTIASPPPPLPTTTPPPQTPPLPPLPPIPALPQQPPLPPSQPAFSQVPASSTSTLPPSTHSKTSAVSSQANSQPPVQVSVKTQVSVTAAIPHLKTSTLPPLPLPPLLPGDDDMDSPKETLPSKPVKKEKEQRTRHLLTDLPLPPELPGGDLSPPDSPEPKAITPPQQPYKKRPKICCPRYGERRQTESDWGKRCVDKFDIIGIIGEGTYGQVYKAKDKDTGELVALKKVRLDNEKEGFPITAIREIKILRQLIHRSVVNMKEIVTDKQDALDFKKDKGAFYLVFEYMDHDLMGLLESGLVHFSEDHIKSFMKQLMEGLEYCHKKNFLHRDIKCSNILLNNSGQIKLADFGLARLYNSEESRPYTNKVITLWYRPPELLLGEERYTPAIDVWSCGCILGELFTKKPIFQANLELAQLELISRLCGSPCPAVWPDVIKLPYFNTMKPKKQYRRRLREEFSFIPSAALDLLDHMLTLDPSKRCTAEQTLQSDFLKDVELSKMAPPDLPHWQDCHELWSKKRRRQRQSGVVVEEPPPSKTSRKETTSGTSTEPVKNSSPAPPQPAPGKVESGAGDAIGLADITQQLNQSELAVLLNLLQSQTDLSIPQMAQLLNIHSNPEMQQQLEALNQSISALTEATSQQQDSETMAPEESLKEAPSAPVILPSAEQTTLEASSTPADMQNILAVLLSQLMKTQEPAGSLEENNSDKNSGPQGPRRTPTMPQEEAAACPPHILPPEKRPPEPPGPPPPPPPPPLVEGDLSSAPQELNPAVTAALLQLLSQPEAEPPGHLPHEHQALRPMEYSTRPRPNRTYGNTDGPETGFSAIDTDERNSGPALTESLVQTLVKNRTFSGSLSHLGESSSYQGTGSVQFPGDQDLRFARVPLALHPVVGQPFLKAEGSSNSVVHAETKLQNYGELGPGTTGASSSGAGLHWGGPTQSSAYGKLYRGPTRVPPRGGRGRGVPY

Each compound was assayed against CDK12 wt/CycK (Homo sapiens (Human), UniProt Q9NYV4) (assay: Radiometric protein kinase assay (33PanQinase Activity Assay), Assay Condition A (thiol containing conditions)). Conditions: thiol containing conditions (1.2 mM DTT), ATP 0.3 μM.
Type: biochemical
Protocol: Example 1—Assay Condition A (Thiol Containing Conditions)
Objective: The IC50 profile of test compounds was determined using three protein kinases.
Test compounds: The compounds were provided as pre-weighed powders in vials. The compounds were dissolved to 1×10^−02M by adding DMSO. 100 μl of each of the resulting stock solutions were transferred into column 2 of four 96 well “master plates”.
Prior to testing, the 1×10^−02M stock solutions in column 2 of the master plates were subjected to a serial, semi-logarithmic dilution using 100% DMSO as a solvent. […] Column 1 and 7 were filled with 100% DMSO as controls. Subsequently, 2×10 μl from each well of the serial diluted copy plates were aliquoted with a 96 channel pipettor into two identical sets of “compound dilution plates”.
In the process, 90 μl H2O were added to each well of a set of compound dilution plates. To minimize potential precipitation, the H2O was added to each plate only a few minutes before the transfer of the compound solutions into the assay plates. Each plate was shaken thoroughly, resulting in a “compound dilution plate/10% DMSO”.
For the assays, 5 μl solution from each well of the compound dilution plates/10% DMSO were transferred into the assay plates. The final volume of the assay was 50 μl. All compounds were tested at 10 final assay concentrations in the range from 1×10^−04M to 3×10^−09M, in singlicate. The final DMSO concentration in the reaction cocktails was 1% in all cases.
Recombinant protein kinases: All protein kinases were expressed in Sf9 insect cells or in E. coli as recombinant GST-fusion proteins or His-tagged proteins, either as full-length or enzymatically active fragments. All kinases were produced from human cDNAs and purified by either GSH-affinity chromatography or immobilized metal. Affinity tags were removed from a number of kinases during purification. The purity of the protein kinases was examined by SDS-PAGE/Coomassie staining, the identity was checked by mass spectroscopy.
Protein kinase assay: A radiometric protein kinase assay (^33PanQinase® Activity Assay) was used for measuring the kinase activity of the three protein kinases. All kinase assays were performed in 96-well FlashPlates™ from PerkinElmer (Boston, Mass., USA) in a 50 μl reaction volume. The reaction cocktail was pipetted in four steps in the following order: • 20 μl of assay buffer (standard buffer) • 5 μl of ATP solution (in H2O) • 5 μl of test compound (in 10% DMSO) • 20 μl enzyme/substrate mix
The following amounts of enzyme and substrate were used per well:
The reaction cocktails were incubated at 30° C. for 60 minutes. The reaction was stopped with 50 μl of 2% (v/v) H3PO4, plates were aspirated and washed two times with 200 μl 0.9% (w/v) NaCl. Incorporation of ^33Pi was determined with a microplate scintillation counter (Microbeta, Wallac). All assays were performed with a BeckmanCoulter/SAGIAN™ Core System.
Evaluation of raw data: The median value of the counts in column 1 (n=8) of each assay plate was defined as “low control”. This value reflects unspecific binding of radioactivity to the plate in the absence of a protein kinase but in the presence of the substrate. The median value of the counts in column 7 of each assay plate (n=8) was taken as the “high control”, i.e. full activity in the absence of any inhibitor. The difference between high and low control was taken as 100% activity.

| SMILES | IC50 [nM] |
| --- | --- |
| CN(C)C/C=C/C(=O)N1CCc2ccc(C(=O)N3CC[C@@H](Nc4ncc(Cl)cn4)C3)cc21 [Example 146, (R,E)-1-(6-(3-((5-chloropyrimidin-2-yl)amino)pyrrolidine-1-carbonyl)indolin-1-yl)-4-(dimethylamino)but-2-en-1-one] | 1000 to 10000 |
| CN(C)C/C=C/C(=O)N1CCOc2c(C(=O)N3CC[C@@H](Nc4ncc(Cl)cn4)C3)cccc21 [Example 129, (R,E)-1-(8-(3-((5-chloropyrimidin-2-yl)amino)pyrrolidine-1-carbonyl)-2H-benzo[b][1,4]oxazin-4(3H)-yl)-4-(dimethylamino)but-2-en-1-one] | 100 to 1000 |
| CN(C)C/C=C/C(=O)N1CCc2cc(C(=O)N3CC[C@@H](Nc4ncc(Cl)cn4)C3)ccc2C1 [Example 149, (R,E)-1-(6-(3-((5-chloropyrimidin-2-yl)amino)pyrrolidine-1-carbonyl)-3,4-dihydroisoquinolin-2(1H)-yl)-4-(dimethylamino)but-2-en-1-one] | 1000 to 10000 |
| CCOc1nc(N[C@@H]2CCN(C(=O)c3ccc(CNC(=O)/C=C/CN(C)C)cc3)C2)ncc1Cl [Example 121, (R,E)-N-(4-(3-((5-chloro-4-ethoxypyrimidin-2-yl)amino)pyrrolidine-1-carbonyl)benzyl)-4-(dimethylamino)but-2-enamide] | 1000 to 10000 |
| C=CC(=O)Nc1ccc(C(=O)N2CC[C@@H](Nc3ncc(Cl)c(N(C)C)n3)C2)cc1 [Example 86, (R)—N-(4-(3-((5-chloro-4-(dimethylamino)pyrimidin-2-yl)amino)pyrrolidine-1-carbonyl)phenyl)acrylamide] | < 100 |
| C=CC(=O)Nc1ccc(C(=O)N2CC[C@@H](Nc3ncc(Br)cn3)C2)cc1OCCN(C)C [Example 157, (R)—N-(4-(3-((5-bromopyrimidin-2-yl)amino)pyrrolidine-1-carbonyl)-2-(2-(dimethylamino)ethoxy)phenyl)acrylamide] | < 100 |
| [2H]c1nc(N[C@@H]2CCN(C(=O)c3ccc(NC(=O)C=C)cc3)C2)nc(N(C)C)c1Cl [Example 139, (R)—N-(4-(3-((5-chloro-4-(dimethylamino)-6-deuteropyrimidin-2-yl)amino)pyrrolidine-1-carbonyl)phenyl)acrylamide] | < 100 |
| COc1nc(N[C@@H]2CCN(C(=O)c3ccc(NC(=O)/C=C/CN(C)C)c(F)c3)C2)ncc1Cl [Example 145, (R,E)-N-(4-(3-((5-chloro-4-methoxypyrimidin-2-yl)amino)pyrrolidine-1-carbonyl)-2-fluorophenyl)-4-(dimethylamino)but-2-enamide] | 100 to 1000 |
| CN(C)C/C=C/C(=O)NCc1ccc(C(=O)N2CC[C@@H](Nc3ncc(Cl)cn3)C2)cc1 [Example 122, (R,E)-N-(4-(3-((5-chloropyrimidin-2-yl)amino)pyrrolidine-1-carbonyl)benzyl)-4-(dimethylamino)but-2-enamide] | 10000 to 30000 |
